Tests used:
EGFR [1] = target: T1, EGFR (Homo sapiens, UniProt P00533); test: EGFR tyrosine phosphorylation assay in corneal epithelial cells (hTCEpi cells); format: cell-based; details: 1 μM; EGF 10, 50, 100 ng/ml
T1 construct: endogenous in cells; host or cells: hTCEpi (immortalized corneal epithelial cells)
Method: An EGFR tyrosine assay in corneal epithelial cells is run to determine whether higher concentrations of EGF can overcome inhibition of EGFR kinase activity. […] Cells are then harvested and immunoblotted for determination of phosphorylated EGFR and total EGFR concentration which was used to determine receptor activity (IC50).
Six concentrations of a compound of Formula I or II, e.g., 0, 1 μM, 3 μM, 10 μM, 30 μM, 100 μM, or 1 μM AG1478 as a control, were used for each EGF concentration (10, 50, 100 ng/ml). Additional controls run were no compound of Formula I or II or no EGF. All experiments were repeated three times. Cells were then harvested and immunoblotted for determination of phosphorylated EGFR (tyrosine 1068 and tyrosine 1045) and total EGFR.

Protein sequences, listed by entry. Tags and fused reporters are not part of them. Residues count along the entry.
UniProt P22607, 23-806 K650E: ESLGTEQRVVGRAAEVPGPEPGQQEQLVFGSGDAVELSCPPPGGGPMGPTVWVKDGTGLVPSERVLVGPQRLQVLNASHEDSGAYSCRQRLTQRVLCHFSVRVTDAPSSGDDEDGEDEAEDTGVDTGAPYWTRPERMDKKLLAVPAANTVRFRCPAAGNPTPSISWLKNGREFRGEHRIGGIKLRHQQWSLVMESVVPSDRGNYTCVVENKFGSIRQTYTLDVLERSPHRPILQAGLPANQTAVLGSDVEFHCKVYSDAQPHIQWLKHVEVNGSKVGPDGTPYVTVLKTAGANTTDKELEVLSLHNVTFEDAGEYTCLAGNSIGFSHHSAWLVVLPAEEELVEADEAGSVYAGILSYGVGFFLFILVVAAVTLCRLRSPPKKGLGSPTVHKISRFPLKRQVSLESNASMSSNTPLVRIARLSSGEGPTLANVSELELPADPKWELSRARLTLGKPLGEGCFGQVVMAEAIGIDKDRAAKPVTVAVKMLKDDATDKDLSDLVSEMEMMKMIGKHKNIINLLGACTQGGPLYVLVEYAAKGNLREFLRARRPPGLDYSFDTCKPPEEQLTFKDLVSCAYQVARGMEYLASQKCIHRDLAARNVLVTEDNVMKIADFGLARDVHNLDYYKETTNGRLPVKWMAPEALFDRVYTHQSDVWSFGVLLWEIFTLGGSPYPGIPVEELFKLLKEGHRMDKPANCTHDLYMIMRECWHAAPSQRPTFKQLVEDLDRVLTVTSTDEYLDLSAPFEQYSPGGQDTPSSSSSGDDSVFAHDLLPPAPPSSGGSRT

EGFR [2] = target: T1, EGFR; details: cited from earlier work
FGFR-3 (K650E variant) = FGFR-3 (K650E variant) (Homo sapiens, UniProt P22607, K650E); test: In vitro inhibition of tyrosine kinases; format: biochemical

SMILES | EGFR phosphorylation (EGFR [1]) | IC50 (EGFR [2]) [nM] | inhibition at 0.3 µM (FGFR-3 (K650E variant); read-out: Mean % Inhibition at 300 nM Compound-I, 300 nM (170.67 ng/mL)) [%] | inhibition at 1 µM (FGFR-3 (K650E variant); read-out: Mean % Inhibition at 1 μM Compound-I, 1 μM (568.9 ng/mL)) [%]
COc1cc2ncnc(Nc3cccc(Cl)c3)c2cc1OC [AG1478] | completely blocked | 3 | – | –
Cl.NC(=O)c1c(OCc2c(F)cc(Br)cc2F)nsc1NC(=O)NCCCCN1CCCC1 [Compound-I, 3-[(4-bromo-2,6-difluorophenyl)methoxy]-5-[[[[4-(1-pyrrolidinyl)butyl]amino]carbonyl]amino]-4-isothiazolecarboxamide hydrochloride] | – | – | 104 | 100
